Assay results reported in ChEMBL document CHEMBL4834454, “Rational design of cannabinoid type-1 receptor allosteric modulators: Org27569 and PSNCBAM-1 hybrids” (Bioorg Med Chem, 2021).

Amino acid sequences for entries named in this document (tags omitted).
UniProt P21554, whole entry: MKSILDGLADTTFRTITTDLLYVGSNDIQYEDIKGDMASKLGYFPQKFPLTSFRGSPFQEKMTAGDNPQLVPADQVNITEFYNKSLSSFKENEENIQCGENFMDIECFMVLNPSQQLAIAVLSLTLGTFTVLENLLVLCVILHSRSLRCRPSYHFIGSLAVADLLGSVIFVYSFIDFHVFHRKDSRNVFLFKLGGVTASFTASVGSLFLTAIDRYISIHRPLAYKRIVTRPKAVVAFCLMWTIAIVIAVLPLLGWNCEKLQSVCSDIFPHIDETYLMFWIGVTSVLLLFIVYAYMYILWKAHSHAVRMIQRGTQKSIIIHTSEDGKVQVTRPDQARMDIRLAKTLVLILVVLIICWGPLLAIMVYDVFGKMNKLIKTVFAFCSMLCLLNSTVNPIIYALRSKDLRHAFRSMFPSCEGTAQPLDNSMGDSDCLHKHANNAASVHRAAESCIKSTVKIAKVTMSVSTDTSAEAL

Tests used:
Cannabinoid receptor 1 [1] = target: T1, Cannabinoid receptor 1 (Homo sapiens, UniProt P21554); assay: Agonist activity at human CB1 receptor expressed in CHO-RD-HGA16 cells overexpressing Galpha16 assessed as stimulation of calcium mobilization measured every 1 sec for 90 secs by Calcium-3 dye based FLIPR assay relative to Emax of CP55940; type: functional, cell-based; settings: time 90.0 sec
Outline: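 Agonist screen. […] They were pretreated with vehicle (BSA/DMSO/EtOH buffer) for 15 min, and a single concentration of test compound was added at 10 s. Fluorescence (485/525 nm) was read for 90 s. RFU is expressed as % of CP55,940 Emax RFU. Line 1 uses hCB1 cells; line 2 uses hCB2 cells.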

Cannabinoid receptor 1 [2] = target: T1, Cannabinoid receptor 1; settings: HEK293, Membrane, filed as allosteric antagonist, time 60.0 min
Cannabinoid receptor 1 [3] = target: T1, Cannabinoid receptor 1; assay: biochemical
Cannabinoid receptor 1 [4] = target: T1, Cannabinoid receptor 1; assay: Allosteric antagonist activity at human CB1 receptor expressed in CHO-RD-HGA16 cells overexpressing Galpha16 assessed as inhibition of CP55940-stimulated calcium mobilization preincubated for 15 mins followed by agonist addition and measured every 1 sec for 90 secs by Calcium-3 dye based FLIPR assay; type: functional, cell-based

Row | Structure (SMILES) | Activity (Cannabinoid receptor 1 [1]) [%] | pKb (Cannabinoid receptor 1 [2]) | IC50 (Cannabinoid receptor 1 [3]) [nM] | IC50 (Cannabinoid receptor 1 [4]) [nM]
1 | O=C(NCCc1ccccc1)Nc1ccc(Cl)cc1 | < 30 | – | – | –
2 | O=C(NCCc1ccc(N2CCCCC2)cc1)Nc1ccc(Cl)cc1 | < 30 | 4.4 | – | –
3 | O=C(Nc1ccc(Cl)cc1)Nc1cccc(-c2cccc(N3CCCC3)n2)c1 | – | – | 100 | 31.6
